In patent US11370795B2, “Process for the synthesis of 6-[(3S,4S)-4-methyl-1-(pyrimidin-2-ylmethyl)pyrrolidin-3-yl]-3-tetrahydropyran-4-yl-7H-imidazo[1,5-a]pyrazin-8-one” (Imara Inc., priority 2017, dated 2022):

Assay: Blood Brain Barrier penetration (plasma and brain concentration)
Type: in vivo
Conditions: mouse

C[C@@H]1CN(Cc2ncccn2)C[C@H]1c1nc2c(cnn2C2CCOCC2)c(=O)[nH]1 (relative stereo)
Kp at 0.5 h (30 min, read-out: Brain/Plasma ratio after 30 minutes): 0.41 | Kp at 2 h (120 min, read-out: Brain/Plasma ratio after 120 minutes): 0.41
